The values below are quoted from earlier work in patent US20060057109A1 (priority 2002, published 2006).

For orientation: half-life means the time needed for the level to fall by half in the phase considered.

The conditions of the data set: adult patients, CPA administered as a bolus; cited from earlier work.

With `NP(=O)(O)N(CCCl)CCCl`, the half-life was 8 h.
